# Experimental data: patent US7229960B2, “Methods and compositions for inhibiting GRB7” (University of Vermont and State Agricultural College, priority 2000, dated 2007)
# Amino acid sequences for entries named in this document (tags omitted).
# UniProt P62993, whole entry: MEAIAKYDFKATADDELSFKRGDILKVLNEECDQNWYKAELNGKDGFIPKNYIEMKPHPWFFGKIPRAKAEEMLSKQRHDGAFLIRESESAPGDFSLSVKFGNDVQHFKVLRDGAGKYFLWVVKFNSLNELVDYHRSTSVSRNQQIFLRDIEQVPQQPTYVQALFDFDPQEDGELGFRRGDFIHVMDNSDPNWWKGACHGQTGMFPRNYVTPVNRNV
# Entries after “also recorded” stand apart in the source; their conditions may differ.
# Target: T1, association of Grb2 with the ErbB family (Homo sapiens, UniProt P62993)
# T1 construct: association of Grb2, compared to Grb7, co-precipitating with the tyrosine phosphorylated ErbB family; endogenous in cells
# Experiment: Co-precipitation of Grb2 with tyrosine phosphorylated ErbB family in SKBR3 cell lysate
# Assay type: binding
# Conditions: 1-100 uM peptide, anti-phosphotyrosine at 185 kDa, densitometry; listed as G7-18NATE
# Text: This analysis includes monitoring Grb2 association with the ErbB family in the presence of G7-18NATE to test the specificity of G7-18NATE binding.
substance,measurement,value
^WFEG YDN TFP C^ [G7BP-5NATE],Effect on association of Grb2 with the ErbB family,not Grb2; also recorded: negligible effect
